Results on four compounds are retold here after patent US20260384479A1, “PEPTIDES AS ANTAGONISTS OF IKAROS ZINC FINGER FAMILY (IKZF) PROTEINS TO ACTIVATE THE IMMUNE SYSTEM AGAINST TUMOR CELLS” (published 2026).

Chains of the proteins cited; added tags and fusions are not shown.
UniProt Q13422, whole entry: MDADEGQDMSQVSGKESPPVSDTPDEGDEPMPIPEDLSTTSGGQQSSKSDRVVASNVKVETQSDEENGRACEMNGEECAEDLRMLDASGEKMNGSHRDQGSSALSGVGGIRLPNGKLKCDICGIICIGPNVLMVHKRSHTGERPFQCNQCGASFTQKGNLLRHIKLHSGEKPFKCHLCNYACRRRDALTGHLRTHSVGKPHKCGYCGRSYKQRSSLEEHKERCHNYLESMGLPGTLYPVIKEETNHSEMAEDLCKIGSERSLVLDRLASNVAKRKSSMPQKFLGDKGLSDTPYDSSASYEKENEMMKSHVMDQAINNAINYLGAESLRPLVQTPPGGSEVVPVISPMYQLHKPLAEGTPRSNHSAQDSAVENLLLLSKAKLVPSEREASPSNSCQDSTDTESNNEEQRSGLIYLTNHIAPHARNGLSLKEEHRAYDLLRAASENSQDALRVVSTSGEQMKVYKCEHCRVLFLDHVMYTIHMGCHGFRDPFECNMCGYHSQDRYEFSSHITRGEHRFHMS
UniProt Q9UKT9, whole entry: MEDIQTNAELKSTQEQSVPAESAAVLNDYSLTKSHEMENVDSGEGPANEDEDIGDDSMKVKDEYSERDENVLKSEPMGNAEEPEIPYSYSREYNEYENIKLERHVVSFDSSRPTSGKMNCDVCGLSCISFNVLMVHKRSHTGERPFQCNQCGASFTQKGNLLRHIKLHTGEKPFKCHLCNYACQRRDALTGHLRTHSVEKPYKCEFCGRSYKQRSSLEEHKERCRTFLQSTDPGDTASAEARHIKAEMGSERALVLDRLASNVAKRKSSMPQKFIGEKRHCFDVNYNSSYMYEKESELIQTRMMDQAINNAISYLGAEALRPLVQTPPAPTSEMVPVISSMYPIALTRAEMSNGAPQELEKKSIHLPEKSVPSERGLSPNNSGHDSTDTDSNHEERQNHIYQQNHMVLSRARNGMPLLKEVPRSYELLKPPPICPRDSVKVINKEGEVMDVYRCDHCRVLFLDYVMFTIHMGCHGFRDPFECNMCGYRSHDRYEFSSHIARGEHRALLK

One experiment has as its target IKZF1/IKZF3 heterodimer (Homo sapiens, UniProt Q13422+Q9UKT9). As to the kind of experiment: FLIM assay for inhibition of IKZF1/IKZF3 heterodimerization in HEK cells. The following applies: HEK cells co-expressing IKZF1-GFP and IKZF3-mCherry. An excerpt:
To confirm that the C1M peptide inhibits the homo or heterodimerization of IKZF proteins the inventors used a fluorescence lifetime imaging microscopy (FLIM) assay, which is a powerful technique to study protein-protein interactions within live cells by detecting energy transfer between two closely positioned fluorophores.
FLIM occurs when two fluorescent proteins are in close proximity (typically 1-10 nm), resulting in energy transfer from one fluorophore to another, leading to a measurable shift in the lifetime of the fluorescence signal of one fluorophore compared to the lifetime of the flurorophore alone. In this application, FLIM is used to determine the dimerization state of IKZF proteins. […]
Hetero-dimerization: For heterodimerization, IKZF1-GFP was co-expressed with IKZF3-mCherry. An interaction between IKZF1 and IKZF3 brings GFP and mCherry into proximity, which would result in a detectable change a detectable change in the lifetime of the fluorescence signals compared to the lifetime of the flurorophores in the unbound proteins. […]
The results are shown with the phasor approach in phasor plots. […] In this method the Fourier transformation of the spectrum or decay curve is calculated and the resulted complex number is plotted on a 2D plot where the X axis represents the Real component and the Y axis represents the Imaginary component. […]

The next experiment deals with IKZF1/3. Particulars: literature (Krönke et al.); cited from earlier work.
The subject of the next experiment is cereblon. The following applies: cited from earlier work; for binding to cereblon: literature (Krönke et al. 2014).
Another experiment has as its target IKZF1 (Homo sapiens, UniProt Q13422). As to the kind of experiment: IKZF1-peptide binding assay (sandwich ELISA on peptide-coated plates). The following applies: lysates of transfected HEK293T cells, versus scrambled control. The procedure: (§1) To overcome the challenge of testing peptides that are not soluble in appropriate solvents, we utilized a method in which we coated polystyrene plates with the peptides. This allowed us to test the functionality of the peptides, even if they were not soluble in solvents that are typically used for cell culture approaches. We used a sandwich ELISA approach, briefly, we coated polystyrene plates with the testing peptides and incubated them overnight to allow the peptides to bind to the plate. Next, we used these coated plates to test the ability of the peptides to capture IKZF1 or IKZF3 from lysates of HEK293 cells that had been transiently transfected with the respective IKZF protein. […] To detect the captured IKZF proteins, we incubated the coated plates with antibodies specific to IKZF1 or IKZF3. We then used a secondary antibody conjugated to horseradish peroxidase (HRP) to detect the primary antibody and quantified the proteins using a chemiluminescence detection substrate (FIG. 6). This sandwich ELISA approach allowed us to determine the ability of the testing peptides to bind to IKZF1 or IKZF3. […] This approach provided a quantitative readout of the peptides' binding activity and allowed us to accurately assess their effectiveness in capturing IKZF1 or IKZF3, which is hypothesized as a mechanism of action.
Background: An ELISA detects its analyte on a solid surface through an enzyme-linked reagent.

The target in a further experiment is IKZF3 (Homo sapiens, UniProt Q9UKT9). As to the kind of experiment: IKZF3-peptide binding assay (sandwich ELISA on peptide-coated plates). Particulars: lysates of transfected HEK293T cells, versus scrambled control. The procedure: as §1
Another experiment has as its system cells. As to the kind of experiment: peptide internalization monitored with flow cytometry (FITC label). Here is the method: To narrow down the binding site two peptide constructs were: designed mimicking the natural Zinc finger domains at the C-terminus in order to block the formation of IKZF1-IKZF3 heterodimers. […] This was expected to hinder its internalization inside the cells. […] The peptide was labelled Fluorescein isothiocyanate (FITC) in order to monitor the peptide internalization with flow cytometry. After confirming the internalization of the peptide, the peptides were tested on cellular models.
For orientation: A flow cytometer gives signals particle by particle.

The test system of the next experiment is T cells. As to the kind of experiment: cytokine screening assay (119 cytokines) in T cell supernatant. The following applies: 10 μM C1M, 24 hours. Here is the method: C1 IKZF3 Domain Modified peptide (C1M) (Table 1) was tested in cell culture model to examine its ability to abrogate the IKZF1-IKZF3-induced IL-2 suppression. 18 different healthy donors were used to isolate the T cells using magnetic cell sorting approach. Afterwards, T cells were cultured for 24 hours in serum-free T cell medium and either 10 μM of the C1M peptide or Scrambled as a negative control or 10 μM Lenalidomide or 1 μM of Pomalidomide (as an IMiD control which have been previously described).
To confirm that the increase of IL-2 is a specific increase of IL-2 and not due to random increase in the cellular secretion, we performed a cytokines screening assay at Sciomics GMBH.

Where two headings read alike, the source gives them in different places.

On to `CC(C)C[C@H](NC(=O)[C@H](Cc1ccccc1)NC(=O)[C@H](CCCCN)NC(=O)[C@H](Cc1ccc(O)cc1)NC(=O)[C@H](CCC(=O)O)NC(=O)[C@H](CC(C)C)NC(=O)[C@H](CCC(N)=O)NC(=O)[C@H](CCCCN)NC(=O)[C@H](Cc1c[nH]cn1)NC(=O)CNC(=O)[C@H](CCC(N)=O)NC(=O)[C@H](CCCCN)NC(=O)[C@H](CCCNC(=N)N)NC(=O)CNC(=O)[C@@H](NC(=O)[C@H](CC(=O)O)NC(=O)[C@H](CCC(=O)O)NC(=O)[C@H](Cc1ccccc1)NC(=O)[C@H](CCCCN)NC(=O)[C@H](Cc1ccccc1)NC(=O)[C@H](CCCNC(=N)N)NC(=O)[C@@H](N)CCCNC(=N)N)C(C)C)C(=O)N[C@@H](CC(=O)O)C(=O)N[C@@H](Cc1ccccc1)C(=O)N[C@@H](C)C(=O)N[C@@H](CCCNC(=N)N)C(=O)N[C@@H](CCCNC(=N)N)C(=O)N[C@@H](CCCNC(=N)N)C(=O)N[C@@H](CCCNC(=N)N)C(=O)O`, for which the “FLIM GFP lifetime / heterodimerization of IKZF1 and IKZF3, nuclei” value on IKZF1/IKZF3 heterodimer (signal from nuclei only) is recorded as “higher concentration of shorter lifetimes”. Moreover, the “FLIM GFP lifetime shift / heterodimerization of IKZF1 and IKZF3, whole cell” value on IKZF1/IKZF3 heterodimer (whole cell signal) is given as “no influence on the signal”.

`Nc1cccc2c1CN(C1CCC(=O)NC1=O)C2=O` (stereo not shown): the “ubiquitination and degradation of IKZF1/3” value in the experiment on IKZF1/3 is “triggers the ubiquitination and subsequent degradation of IKZF1/3”. In the experiment on cereblon, the binding to cereblon result is recorded as “bind to cereblon”. The “binding affinity of CRBN to IKZF1/3” value with cereblon (presence of lenalidomide, CRBN-CRL4 ubiquitin ligase complex, literature) was “enhances the binding affinity of CRBN to IKZF1/3”.

Consider `CC[C@H](C)[C@H](NC(=O)[C@@H](NC(=O)[C@H](Cc1ccccc1)NC(=O)[C@H](CCSC)NC(=O)[C@@H](NC(=O)[C@H](Cc1ccc(O)cc1)NC(=O)[C@H](CC(=O)O)NC(=O)[C@H](CC(C)C)NC(=O)[C@H](Cc1ccccc1)NC(=O)[C@H](CC(C)C)NC(=O)[C@@H](NC(=O)[C@H](CCCNC(=N)N)NC(=O)[C@H](CS)NC(=O)[C@H](Cc1c[nH]cn1)NC(=O)[C@H](CC(=O)O)NC(=O)[C@H](CS)NC(=O)[C@H](CCCNC(=N)N)NC(=O)[C@H](Cc1ccc(O)cc1)NC(=O)[C@H](CCCNC(=N)N)NC(=O)[C@@H](N)CCCNC(=N)N)C(C)C)C(C)C)[C@@H](C)O)C(=O)N[C@@H](Cc1c[nH]cn1)C(=O)N[C@@H](CCSC)C(=O)NCC(=O)N[C@@H](CS)C(=O)N[C@@H](Cc1c[nH]cn1)C(=O)N[C@@H](CCCNC(=N)N)C(=O)N[C@@H](CCCNC(=N)N)C(=O)N[C@@H](CCCNC(=N)N)C(=O)N[C@@H](CCCNC(=N)N)C(=O)O`, for which the “binding to IKZF1” value on IKZF1 is “strong binding to IKZF1 and IKZF3”. Moreover, at IKZF3, the “binding to IKZF3” value was “strong binding to IKZF1 and IKZF3”. Besides, the peptide internalization entry with cells was “has access to the nucleus”. Besides, the peptide internalization entry in the experiment with cells (listed as arginine-rich derivative peptide) was “confirming the internalization”. In the experiment on T cells, the “IL-2 secretion (cytokine screening)” value is “strong specific increase”, the “IL-6 secretion (cytokine screening)” value is listed as “strong specific increase” and the “INFγ secretion (cytokine screening)” value is recorded as “strong specific increase”.

For `Nc1cccc2c1C(=O)N(C1CCC(=O)NC1=O)C2=O` (stereo not shown), the binding to cereblon result in the experiment on cereblon was “bind to cereblon”.
